According to patent publication EP2913333A1 (priority 2014, dated 2015):

What was measured:
E. feacalis DltA = target: T1, E. feacalis DltA (Enterococcus faecalis, UniProt Q830N0); assay: biochemical
T1 sequence (Q830N0 1-506): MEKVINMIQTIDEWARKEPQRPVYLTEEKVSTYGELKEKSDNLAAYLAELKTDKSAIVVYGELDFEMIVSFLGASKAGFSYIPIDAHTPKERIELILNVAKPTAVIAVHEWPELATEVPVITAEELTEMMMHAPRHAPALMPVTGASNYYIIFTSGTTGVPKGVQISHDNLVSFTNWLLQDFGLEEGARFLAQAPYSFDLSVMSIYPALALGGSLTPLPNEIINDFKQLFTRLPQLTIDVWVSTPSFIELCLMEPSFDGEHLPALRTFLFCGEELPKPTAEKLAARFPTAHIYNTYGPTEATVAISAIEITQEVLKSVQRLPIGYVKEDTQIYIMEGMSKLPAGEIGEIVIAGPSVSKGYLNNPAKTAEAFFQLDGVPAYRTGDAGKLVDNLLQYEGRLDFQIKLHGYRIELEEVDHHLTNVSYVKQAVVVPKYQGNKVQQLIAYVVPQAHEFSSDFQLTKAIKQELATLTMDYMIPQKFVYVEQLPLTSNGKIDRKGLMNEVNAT
Experimental: (§1) To this end, recombinant proteins DltA were expressed and purified after cloning of the genes of S. aureus, E. faecalis, E. faecium and S. agalactiae as described thereafter. The capacity of the compounds of the invention to inhibit DltA enzymatic activity was assessed using the DltA assays as described below: • The dltA gene was amplified from chromosomal DNA of S. aureus, E. faecalis, E. faecium and S. agalactiae and introduced into E. coli BL21 (Invitrogen, Carlsbad, CA) following manufacturer's instruction. Bacteria were grown at 37°C under aerobic conditions and isopropyl-beta-D-thiogalactopyranoside (IPTG) was added to 0.5-1 mM when OD600 of the bacterial culture had reached 0.5. After a further incubation for 3 hours, cells were harvested by centrifugation. Purification of the recombinant DltA protein was performed by affinity chromatography on nickel-nitrilotriacetic acid (Ni-NTA) column following manufacturer's instructions (Qiagen). Fractions containing recombinant DltA protein were adjusted to 50% glycerol and stored at -20°C until use.
(§2) The binding potency of the inhibitors against DltA enzyme was assessed by IC50 determination in an in vitro DltA activity assay. […] Luminescence intensity was immediately measured on a Fluostar Optima (BMG) (excitation 360nm, emission 520nm) and converted into inhibition percentages. […]

S. Agalactiae DltA = target: T2, S. Agalactiae DltA (Streptococcus agalactiae serotype III, UniProt Q8VM67); assay: biochemical
T2 sequence (Q8VM67 1-511): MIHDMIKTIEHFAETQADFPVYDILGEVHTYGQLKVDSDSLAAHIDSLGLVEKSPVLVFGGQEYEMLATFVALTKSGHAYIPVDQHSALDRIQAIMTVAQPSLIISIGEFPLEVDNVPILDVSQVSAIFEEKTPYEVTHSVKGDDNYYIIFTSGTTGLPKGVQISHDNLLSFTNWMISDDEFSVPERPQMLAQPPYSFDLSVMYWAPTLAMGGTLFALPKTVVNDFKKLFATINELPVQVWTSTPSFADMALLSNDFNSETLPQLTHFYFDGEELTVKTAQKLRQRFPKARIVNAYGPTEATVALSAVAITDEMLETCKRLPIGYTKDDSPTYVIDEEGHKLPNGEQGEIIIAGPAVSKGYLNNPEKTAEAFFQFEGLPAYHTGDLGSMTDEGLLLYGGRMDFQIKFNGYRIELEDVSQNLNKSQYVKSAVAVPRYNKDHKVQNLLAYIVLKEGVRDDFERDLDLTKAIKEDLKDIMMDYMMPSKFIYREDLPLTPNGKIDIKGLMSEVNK
Experimental: as §1, §2

CC1CCCC(n2cnc3cc(-c4sc(N5CC[C@H](CO)C5)c5c(=O)[nH]cnc45)ccc32)C1 (some centres unmarked) [Example 48]
IC50 (E. feacalis DltA): 46 nM | IC50 (S. Agalactiae DltA): 3700 nM
